{"source": "ChEMBL document CHEMBL1201862", "about": "“PubChem BioAssay data set” (2004)", "note": "This is a selection; strong and weak results do not stand in their true shares. Only a part of the results of these assays is listed, not drawn at random. Calls of active or inactive are those of the source. The rule behind the calls is not given here.", "data": [{"biological_target": "T1, Ferritin light chain (Equus caballus) (UniProt P02791)", "T1 sequence (whole entry)": "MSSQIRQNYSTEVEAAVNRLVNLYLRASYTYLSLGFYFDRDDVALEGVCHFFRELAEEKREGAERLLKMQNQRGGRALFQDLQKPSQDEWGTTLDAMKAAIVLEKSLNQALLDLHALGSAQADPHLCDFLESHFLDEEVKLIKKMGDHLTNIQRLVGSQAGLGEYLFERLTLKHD", "values": [{"smiles": "O=C(O)c1cc(S(=O)(=O)O)ccc1O", "Potency": "inactive"}]}]}
